System: native mouse receptor
Experiment: Competitive binding of PDGF forms against 125I-PDGF on BALB/c 3T3 cells
Conditions: mouse 3T3 cells, yeast-expressed homodimers
Description: The ability of the human recombinant AA and BB homodimers to compete for the type B receptor sites and displace ^125 I-labeled PDGF (prepared as described below) was studied. Each homodimer was produced selectively by a yeast expression system and was purified from yeast media that is devoid of other mesenchymal cell growth factors, thus avoiding the artifact of contamination by factors that might be present in mammalian expression systems.
BALB/c 3T3 cells and CHO transfectants (CHO-HR5) were incubated with ^125 I-PDGF in the presence of increasing concentrations of AA or BB. Binding was carried out at 37° C. for 45 min in whole cell suspension. Unbound, radiolabeled PDGF was removed by centrifugation on a Ficoll gradient Non-specific binding, determined by incubating CHO cells with ^125 I-PDGF, accounted for 25 percent of the bound radioactivity.

Substance: BB: Human recombinant BB homodimer of PDGF produced by a yeast expression system
- Relative affinity for the native mouse receptor: higher affinity than the AA form

Reference: US6043211A, “Method for inhibiting the activity of a platelet-derived growth factor receptor binding protein” (The Regents of the University of California, priority 1995, dated 2000)
